These are literature values, as cited in patent US9234902B2, “Method for monitoring anticoagulant therapy” (priority 2011, dated 2016).

As usually defined, the half-life is the time in which the quantity being followed falls by half.

For the data set the following is noted: physiologically active gamma carboxylated VKD coagulation factor; cited from earlier work.

With “FX: vitamin K dependent coagulation factor X (Stuart factor)”, the half-life is roughly 52 h.
